In patent EP1903056A2, “HLA-A1, -A2 -A3, -A24, -B7, and -B44 tumor associated antigen peptides and compositions” (priority 2002, dated 2004):

Experiments:
[1] = biological target: HLA-A*0101 (Homo sapiens, UniProt P04439, A114D/A174V/A182V/D101N/D185E/E176A/E190D/L180R/Q94H/R68K/S129P/T187R/V100A/V91M/W191G); assay: Class I peptide-binding assay, A*0101; conditions: for change of HLA-A*0101 binding affinity of analog: result in words; for IC50: binding affinity (IC50) to HLA-A*0101, running text
[2] = biological target: B*1801 (Homo sapiens, UniProt P01889, A329T/A93T/A95T/C349S/D201E/D54G/D98Y/E176V/E187T/E204Q/E69T/K202T/Q94N/R155S/R180L/S121R/V306I/Y140S/Y195H/Y33H/Y91S); assay: B44 supertype peptide binding, B*1801; conditions: CEA-derived B44 peptides; binding affinity, unit inferred
[3] = test system: B44 supertype (B*1801, B*4001, B*4002, B*4402, B*4403, B*4501); assay: B44 supertype cross-binding (degeneracy, alleles bound); set-up: species or system human; conditions: number of the six B44 supertype alleles bound
[4] = biological target: B*4001(B60) (Homo sapiens, UniProt P01889, A65T/A93T/A95T/D138N/D98Y/E176V/E69K/N87E/Q56L/Q94N/R180L/S121R/S35A/S48T/T167S/V36M/W171L/Y33H/Y91S); assay: B44 supertype peptide binding, B*4001; conditions: CEA-derived B44 peptides; binding affinity, unit inferred; read-out: B* 4001
[5] = biological target: B*4403 (Homo sapiens, UniProt P01889, A223V/A65T/A93T/A95T/D201E/D98Y/E176V/E187L/E204Q/E69K/G107R/H137Y/K202T/L105A/L119I/N104T/N87E/Q56L/Q94N/R106L/R155S/R180L/S101N/S121R/S35A/S48T/T118I/V36M/W191S/Y140D/Y91S); assay: B44 supertype peptide binding, B*4403; conditions: CEA-derived B44 peptides; binding affinity, unit inferred; read-out: B* 4403
[6] = biological target: B*4402 (Homo sapiens, UniProt P01889, A223V/A65T/A93T/A95T/D201E/D98Y/E176V/E187L/E204Q/E69K/G107R/H137Y/K202T/L105A/L119I/N104T/N87E/Q56L/Q94N/R106L/R155S/R180D/S101N/S121R/S35A/S48T/T118I/V36M/W191S/Y140D/Y91S); assay: B44 supertype peptide binding, B*4402; conditions: CEA-derived B44 peptides; binding affinity, unit inferred; read-out: B* 4402
[7] = biological target: B*4501 (Homo sapiens, UniProt P01889, A329T/A65T/A93T/A95T/C349S/D138N/D201E/D98Y/E176V/E187L/E204Q/E69K/H137Y/K202T/L119W/N87E/Q56L/Q94N/R155S/R180D/S121R/S35A/S48T/V127L/V306I/V36M/W191S/Y140L/Y33H/Y91S); assay: B44 supertype peptide binding, B*4501; conditions: CEA-derived B44 peptides; binding affinity, unit inferred; read-out: B* 4501
[8] = biological target: B*4002 (B61) (Homo sapiens, UniProt P01889, A65T/A93T/A95T/D138N/D201E/D98Y/E176V/E204Q/E69K/K202T/N87E/Q56L/Q94N/R180L/S48T/Y33H/Y91S); assay: B44 supertype peptide binding, B*4002; conditions: CEA-derived B44 peptides; binding affinity, unit inferred; read-out: B* 4002

Structure (SMILES) | change of HLA-A*0101 binding affinity of analog [1] | IC50 [1] | IC50 [2] | Degeneracy [3] | IC50 [4] | IC50 [5] | IC50 [6] | IC50 [7] | IC50 [8]
CSCC[C@H](N)C(=O)N[C@H](C(=O)N[C@@H](CC(=O)O)C(=O)N[C@@H](CC(C)C)C(=O)N[C@H](C(=O)N[C@@H](CC(=O)O)C(=O)N[C@@H](C)C(=O)N[C@@H](CCC(=O)O)C(=O)N[C@@H](CCC(=O)O)C(=O)N[C@@H](Cc1ccc(O)cc1)C(=O)O)C(C)C)[C@@H](C)O | significantly improved binding affinity | – | – | – | – | – | – | – | –
C[C@H](NC(=O)[C@@H](NC(=O)[C@H](CC(=O)O)NC(=O)[C@@H](NC(=O)CN)[C@@H](C)O)[C@@H](C)O)C(=O)N[C@@H](CCC(=O)O)C(=O)N[C@@H](CC(N)=O)C(=O)N1CCC[C@H]1C(=O)N[C@@H](CCC(=O)O)C(=O)N[C@@H](Cc1ccc(O)cc1)C(=O)O | significantly improved binding affinity | – | – | – | – | – | – | – | –
CC(C)C[C@H](NC(=O)[C@@H]1CCCN1C(=O)[C@H](CC(=O)O)NC(=O)[C@H](C)NC(=O)[C@@H]1CCCN1)C(=O)N[C@@H](CC(=O)O)C(=O)N[C@@H](CO)C(=O)N[C@H](C(=O)N[C@@H](Cc1ccccc1)C(=O)N[C@@H](Cc1ccc(O)cc1)C(=O)O)[C@@H](C)O | significantly improved binding affinity | – | – | – | – | – | – | – | –
CC[C@H](C)[C@H](N)C(=O)N[C@H](C(=O)N[C@@H](CC(=O)O)C(=O)N[C@@H](CC(N)=O)C(=O)N[C@@H](CC(N)=O)C(=O)N[C@@H](CO)C(=O)NCC(=O)N[C@@H](CO)C(=O)N[C@@H](Cc1ccc(O)cc1)C(=O)O)[C@@H](C)O [CEA.289D3] | – | ≤ 100 nM | – | – | – | – | – | – | –
CC[C@H](C)[C@H](NC(=O)[C@@H](N)[C@@H](C)O)C(=O)N[C@@H](CC(=O)O)C(=O)N1CCC[C@H]1C(=O)N[C@@H](CO)C(=O)N[C@@H](Cc1ccc(O)cc1)C(=O)N[C@H](C(=O)N[C@@H](Cc1ccc(O)cc1)C(=O)N[C@@H](Cc1ccc(O)cc1)C(=O)O)[C@@H](C)O [CEA.419D3] | – | ≤ 100 nM | – | – | – | – | – | – | –
CC[C@H](C)[C@H](N)C(=O)N[C@H](C(=O)N[C@@H](CC(=O)O)C(=O)N[C@@H](CCCCN)C(=O)N[C@@H](CC(N)=O)C(=O)N[C@@H](CO)C(=O)NCC(=O)N[C@@H](CC(C)C)C(=O)N[C@@H](Cc1ccc(O)cc1)C(=O)O)[C@@H](C)O [CEA.467D3] | – | ≤ 100 nM | – | – | – | – | – | – | –
NC(=O)CC[C@H](NC(=O)[C@@H]1CCCN1C(=O)[C@H](CO)NC(=O)[C@@H]1CCCN1C(=O)[C@H](CC(N)=O)NC(=O)[C@H](CO)NC(=O)[C@H](CC(=O)O)NC(=O)[C@H](CO)NC(=O)[C@@H](N)Cc1c[nH]cn1)C(=O)N[C@@H](Cc1ccc(O)cc1)C(=O)O [CEA.616D3] | – | ≤ 100 nM | – | – | – | – | – | – | –
C[C@H](NC(=O)[C@H](CO)NC(=O)[C@@H](N)Cc1c[nH]cn1)C(=O)N[C@@H](CO)C(=O)N[C@@H](CC(N)=O)C(=O)N1CCC[C@H]1C(=O)N[C@@H](CO)C(=O)N1CCC[C@H]1C(=O)N[C@@H](CCC(N)=O)C(=O)N[C@@H](Cc1ccc(O)cc1)C(=O)O [CEA.616] | – | ≤ 100 nM | – | – | – | – | – | – | –
CSCC[C@H](NC(=O)[C@@H](N)C(C)C)C(=O)N[C@@H](CC(=O)O)C(=O)NCC(=O)N[C@H](C(=O)NCC(=O)N[C@@H](CO)C(=O)N1CCC[C@H]1C(=O)N[C@@H](Cc1ccc(O)cc1)C(=O)O)C(C)C [HER2/neu.773D3] | significantly improved binding affinity | – | – | – | – | – | – | – | –
CC(C)C[C@H](NC(=O)[C@@H]1CCCN1C(=O)[C@@H](NC(=O)[C@H](C)N)[C@@H](C)O)C(=O)N[C@@H](CC(=O)O)C(=O)N[C@@H](CO)C(=O)N[C@H](C(=O)N[C@@H](Cc1ccccc1)C(=O)N[C@@H](Cc1ccc(O)cc1)C(=O)O)[C@@H](C)O [HER2/neu.997T2] | significantly improved binding affinity | – | – | – | – | – | – | – | –
CC(C)C[C@H](N)C(=O)N[C@H](C(=O)N[C@@H](CC(=O)O)C(=O)N[C@@H](CO)C(=O)N1CCC[C@H]1C(=O)N[C@@H](CCC(N)=O)C(=O)N1CCC[C@H]1C(=O)N[C@@H](CCC(=O)O)C(=O)N[C@@H](Cc1ccc(O)cc1)C(=O)O)[C@@H](C)O [HER2/neu.1131D3] | significantly improved binding affinity | – | – | – | – | – | – | – | –
CC[C@H](C)[C@H](NC(=O)[C@H](CC(N)=O)NC(=O)[C@@H]1CCCN1C(=O)[C@@H](NC(=O)[C@H](Cc1ccccc1)NC(=O)[C@H](CC(C)C)NC(=O)[C@H](CCC(=O)O)NC(=O)[C@@H](N)CCC(N)=O)[C@@H](C)CC)C(=O)N[C@H](C(=O)N[C@H](C(=O)O)C(C)C)[C@@H](C)O [compound 369] | – | – | 81 nM | 6 | 121 nM | 2.6 nM | 48 nM | 14 nM | 27 nM
CC(C)C[C@H](NC(=O)[C@H](Cc1ccc(O)cc1)NC(=O)[C@@H](NC(=O)[C@H](C)NC(=O)[C@H](CC(=O)O)NC(=O)[C@H](CCC(N)=O)NC(=O)[C@@H](NC(=O)[C@H](CCC(=O)O)NC(=O)[C@@H]1CCCN1)[C@@H](C)O)[C@@H](C)O)C(=O)O [compound 421] | – | – | 13200 nM | 0 | 1370 nM | 2490 nM | > 10000 nM | 13400 nM | > 10000 nM

Other lines, results leading:

change of HLA-A*0101 binding affinity of analog [1] | IC50 [1] | IC50 [2] | Degeneracy [3] | IC50 [4] | IC50 [5] | IC50 [6] | IC50 [7] | IC50 [8] | Structure (SMILES)
– | ≤ 100 nM | – | – | – | – | – | – | – | CSCC[C@H](N)C(=O)N[C@@H](CCC(N)=O)C(=O)N[C@@H](CC(=O)O)C(=O)N[C@@H](CC(C)C)C(=O)N[C@H](C(=O)N[C@@H](CCC(N)=O)C(=O)N[C@@H](CCC(=O)O)C(=O)N[C@@H](CC(N)=O)C(=O)N[C@@H](Cc1ccc(O)cc1)C(=O)O)C(C)C [MAGE2.247]
– | – | 1430 nM | 0 | 11600 nM | 803 nM | 16900 nM | > 10000 nM | 2080 nM | CC(C)[C@H](N)C(=O)N[C@@H](CCC(=O)O)C(=O)N[C@@H](CC(=O)O)C(=O)N[C@@H](CCCCN)C(=O)N[C@@H](CC(=O)O)C(=O)N[C@@H](C)C(=O)N[C@H](C(=O)N[C@@H](C)C(=O)N[C@@H](Cc1ccccc1)C(=O)N[C@H](C(=O)O)[C@@H](C)O)C(C)C [compound 418]
– | – | 1350 nM | 0 | > 10000 nM | 536 nM | 787 nM | > 10000 nM | > 10000 nM | C[C@H](NC(=O)[C@H](CC(=O)O)NC(=O)[C@H](CCC(N)=O)NC(=O)[C@@H](NC(=O)[C@H](CCC(=O)O)NC(=O)[C@@H]1CCCN1C(=O)[C@H](CCC(=O)O)NC(=O)[C@@H](N)CS)[C@@H](C)O)C(=O)N[C@H](C(=O)N[C@@H](Cc1ccc(O)cc1)C(=O)O)[C@@H](C)O [compound 419]
– | – | 10800 nM | 0 | > 10000 nM | 19500 nM | 6340 nM | > 10000 nM | > 10000 nM | C[C@H](NC(=O)[C@H](CC(=O)O)NC(=O)[C@H](CCC(N)=O)NC(=O)[C@@H](NC(=O)[C@H](CCC(=O)O)NC(=O)[C@@H]1CCCN1)[C@@H](C)O)C(=O)N[C@H](C(=O)N[C@@H](Cc1ccc(O)cc1)C(=O)O)[C@@H](C)O [compound 420]
– | – | 7270 nM | 0 | 895 nM | 2680 nM | 6670 nM | > 10000 nM | 2360 nM | CC(C)C[C@H](NC(=O)[C@H](C)NC(=O)[C@@H](NC(=O)[C@H](C)NC(=O)[C@H](CC(=O)O)NC(=O)[C@H](CCC(=O)O)NC(=O)[C@H](CC(=O)O)NC(=O)[C@H](CCC(=O)O)NC(=O)[C@@H](N)C(C)C)C(C)C)C(=O)N[C@H](C(=O)O)[C@@H](C)O [compound 426]
– | – | 1020 nM | 0 | 7270 nM | 1620 nM | > 10000 nM | > 10000 nM | > 10000 nM | CC[C@H](C)[C@H](NC(=O)[C@H](CCC(=O)O)NC(=O)[C@@H]1CCCN1)C(=O)N[C@@H](CCC(N)=O)C(=O)N[C@@H](CC(N)=O)C(=O)N[C@H](C(=O)N[C@H](C(=O)N[C@@H](Cc1ccc(O)cc1)C(=O)O)[C@@H](C)O)[C@@H](C)O [compound 427]
